Values of other authors in patent US8741962B2, “Process for preparation of Rasagiline and salts thereof” (USV Limited, priority 2009, dated 2014).

The chains behind the UniProt entries cited, without tags or fusion partners.
UniProt P27338, whole entry, species assumed: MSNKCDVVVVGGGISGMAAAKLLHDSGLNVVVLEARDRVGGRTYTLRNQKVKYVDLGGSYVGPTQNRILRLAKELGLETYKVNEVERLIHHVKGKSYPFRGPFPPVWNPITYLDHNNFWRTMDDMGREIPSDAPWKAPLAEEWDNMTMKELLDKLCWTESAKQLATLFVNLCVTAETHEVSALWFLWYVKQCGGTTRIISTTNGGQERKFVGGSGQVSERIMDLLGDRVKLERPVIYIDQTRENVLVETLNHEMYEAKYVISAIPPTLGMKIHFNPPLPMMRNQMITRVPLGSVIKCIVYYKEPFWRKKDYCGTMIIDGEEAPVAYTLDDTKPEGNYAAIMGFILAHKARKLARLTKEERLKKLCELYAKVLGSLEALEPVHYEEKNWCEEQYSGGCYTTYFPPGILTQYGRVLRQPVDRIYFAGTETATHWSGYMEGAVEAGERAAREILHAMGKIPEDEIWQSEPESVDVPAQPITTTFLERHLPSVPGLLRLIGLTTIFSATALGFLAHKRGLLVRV

Target: MAO-B (Homo sapiens, UniProt P27338)
Conditions: cited from earlier work

Row | Structure (SMILES) | MAO inhibition activity in vitro
1 | C#CCN[C@@H]1CCc2ccccc21.CS(=O)(=O)O [R(+)-Rasagiline mesylate, (1R)-2,3-dihydro-N-2-propynyl-1H-indane-1-amine mesylate] | highly potent and MAO-B-selective inhibition activity
2 | C#CCN[C@@H]1CCc2ccccc21.Cl [R-(+)-Rasagiline hydrochloride, (1R)-2,3-dihydro-N-2-propynyl-1H-indane-1-amine hydrochloride] | highly potent and MAO-B-selective inhibition activity
